Apparent affinities of Ab-14 variants for a coronavirus HR2 peptide

Source: Engelhart et al. 2022 (doi:10.1038/s41597-022-01779-4), MIT Lincoln Laboratory and A-Alpha Bio; data file from the FLAb repository.

Antigen: PDVDLGDISGINAS, a 14-residue peptide of the SARS-CoV-2 spike HR2 region.

The variants keep the light chain, the linker and the frameworks of Ab-14 (scFv order VH, three GGGGS repeats, VL).
VH: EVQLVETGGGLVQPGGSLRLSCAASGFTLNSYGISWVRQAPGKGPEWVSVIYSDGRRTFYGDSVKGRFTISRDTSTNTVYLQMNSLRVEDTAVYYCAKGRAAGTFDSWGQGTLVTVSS
VL: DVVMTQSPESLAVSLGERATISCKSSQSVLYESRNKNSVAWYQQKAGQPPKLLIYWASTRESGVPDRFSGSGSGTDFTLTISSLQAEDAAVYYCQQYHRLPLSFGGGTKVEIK

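The starting antibody came from a phage panning campaign against this peptide. AAYL49 was designed without a model: most single CDR substitutions and a random sample of double and triple ones. AlphaSeq pools MATa yeast showing the antibodies with MATalpha yeast showing the peptide. The frequency of each diploid, read from paired DNA barcodes, reflects how well the two displayed proteins bind. Scores were corrected for input abundance and mapped to Kd with protein pairs of known affinity run in the same pool. Each pool was mated in three replicate cultures.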

Positions count from residue 1 of the parent VH; S31K puts K in place of S.
Scale: log10 of Kd in nM, estimated from mating counts; low values are strong binders.
A pair that was not seen in that replicate is written "ND"; this usually means weak binding, but a binder can also be missed.
For reference, the parent read 0.65 as the reference entry and 4.11 (one replicate of three) as a member of this library.
Three control strains display no target. For library AAYL49, 15% of the pairings with them gave a signal, with a median of 4.06 and one signal in twenty below 2.83, so weak values seen in few replicates may be background. For each scFv, signals with the empty controls are counted beside the result, with their mean in brackets.

| # | changes | replicates, log10 nM | control signals |
|---|---|---|---|
| 1 | S31K I34V S107I | 1.82 / 1.74 / 1.78 | 5 of 9 (4.95) |
| 2 | A101W T104P S107R | ND / 4.04 / ND | 4 of 9 (4.00) |
| 3 | F27Q G103L F105M | 3.39 / ND / 3.86 | 3 of 9 (4.15) |
| 4 | S35Q V50M R57I | ND / ND / ND | 0 of 9 |
| 5 | F27C I34A | ND / 4.03 / ND | 1 of 9 (3.86) |
| 6 | K65C S107L | 1.87 / 2.01 / 2.05 | 0 of 9 |
| 7 | F27I V64Q T104K | ND / ND / ND | 0 of 9 |
| 8 | N30Y R57C T104H | ND / ND / ND | 3 of 9 (3.84) |
| 9 | N30G G99T A102W | 5.15 / 3.08 / ND | 4 of 9 (4.17) |
| 10 | S31N F59S S63C | 1.80 / 3.06 / 2.22 | 0 of 9 |
| 11 | G26V | 3.04 / 1.79 / 2.97 | 0 of 9 |
| 12 | I51D R100S | ND / ND / ND | 5 of 9 (3.96) |
| 13 | N30Y V50N V64Q | 3.93 / ND / ND | 0 of 9 |
| 14 | F27A S63A G99W | ND / ND / ND | 1 of 9 (3.55) |
| 15 | S31H T58D T104H | 1.36 / 1.43 / 1.34 | 2 of 9 (4.74) |
| 16 | L29Y S31I G103F | ND / ND / ND | 1 of 9 (3.52) |
| 17 | N30F D54Q S107P | ND / ND / ND | 0 of 9 |
| 18 | F27I S31H R57F | ND / ND / ND | 0 of 9 |
| 19 | S31C Y32Q Y52Q | ND / ND / ND | 1 of 9 (4.35) |
| 20 | G33S I34Y I51N | ND / ND / ND | 1 of 9 (3.56) |
| 21 | N30K S53F D106V | ND / ND / ND | 2 of 9 (2.74) |
| 22 | Y32Q V50E R100S | ND / ND / ND | 1 of 9 (3.99) |
| 23 | Y32H S63A G103N | 4.42 / ND / 4.31 | 7 of 9 (4.71) |
| 24 | V50Q Y60M S107M | 4.47 / ND / ND | 1 of 9 (3.19) |
| 25 | S31K S63Y G99P | ND / ND / ND | 0 of 9 |
| 26 | G26C I51K F105Y | ND / ND / ND | 0 of 9 |
| 27 | S31T S53R S107M | ND / 3.16 / 5.92 | 4 of 9 (5.08) |
| 28 | G26S S31E F59I | 3.89 / 2.97 / 4.44 | 3 of 9 (3.47) |
| 29 | S31C K65W A101L | 4.57 / 4.62 / 4.24 | 1 of 9 (3.29) |
| 30 | L29M T58R A101N | 1.88 / 2.33 / 2.90 | 1 of 9 (3.11) |
| 31 | T58Q A101H S107T | ND / ND / ND | 0 of 9 |
| 32 | S31F Y52M G55Y | ND / ND / ND | 0 of 9 |
| 33 | G33A D62N K65R | ND / 2.99 / ND | 0 of 9 |
| 34 | G26L F27M L29K | ND / ND / ND | 1 of 9 (3.26) |
| 35 | L29T I51Q R57Q | ND / ND / ND | 0 of 9 |
| 36 | D62C V64R F105Q | ND / ND / 6.45 | 2 of 9 (4.89) |
| 37 | Y52N D54R F105A | ND / 4.28 / 5.94 | 3 of 9 (4.35) |
| 38 | N30E S31M D62M | 3.96 / 3.55 / 3.81 | 1 of 9 (4.46) |
| 39 | G26Q Y52L D106C | ND / ND / ND | 0 of 9 |
| 40 | G26V N30W T104K | 3.83 / 4.28 / ND | 3 of 9 (4.13) |
| 41 | R57Y G61S D106P | 2.45 / 2.59 / 3.11 | 0 of 9 |
| 42 | G55R V64C F105W | ND / 3.34 / ND | 1 of 9 (4.79) |
| 43 | T28L G55S G103V | ND / ND / ND | 1 of 9 (4.93) |
| 44 | V50K I51N D106L | ND / ND / 5.81 | 4 of 9 (4.35) |
| 45 | V50S S63G G99A | ND / ND / ND | 2 of 9 (3.95) |
| 46 | F27M S53I D54V | ND / ND / ND | 0 of 9 |
| 47 | S63T K65W A101W | 2.96 / 2.20 / 1.97 | 2 of 9 (3.60) |
| 48 | S31A S63T A102G | ND / ND / ND | 0 of 9 |

6 of these entries, quoted again:

changes	replicates, log10 nM	control signals
A101W T104P S107R	ND / 4.04 / ND	4 of 9 (4.00)
F27M S53I D54V	ND / ND / ND	0 of 9
V50S S63G G99A	ND / ND / ND	2 of 9 (3.95)
G33S I34Y I51N	ND / ND / ND	1 of 9 (3.56)
S63T K65W A101W	2.96 / 2.20 / 1.97	2 of 9 (3.60)
S31C Y32Q Y52Q	ND / ND / ND	1 of 9 (4.35)